Reference: patent US5677288A, “Use of aminoglycosides to protect against excitotoxic neuron damage” (Cypros Pharmaceutical Corporation, priority 1994, dated 1997)

System: hippocampal slices
Settings: about 25 mM; in words

`[H]/N=C(/N)N[C@H]1[C@H](O)[C@@H](O)[C@H](O[C@@H]2O[C@@H](C)[C@](O)(C=O)[C@H]2O[C@@H]2O[C@@H](CO)[C@H](O)[C@@H](O)[C@@H]2NC)[C@@H](N/C(N)=N\[H])[C@@H]1O` [Streptomycin] was tested, and the “protection of hippocampal slices” value was “moderately effective”.
